Where two headings read alike, the source gives them in different places.
Assays:
[1] = system: klotho^hm mice; details: mouse, in vivo
[2] = system: klotho^hm mice

Question: Which results are given for `CCN(CC)CCCC(C)Nc1ccnc2cc(Cl)ccc12` (racemic) [chloroquine, (RS)—N′-(7-chloroquinoline-4-yl)-N,N-diethyl-pentane-1,4-diamine]?
Answer: calcification in analyzed tissues (trachea, lungs, kidneys, stomach, vessels) [1]: significant reduction of the calcification; average life expectancy ([2]; mouse, in vivo): 90 days; lifespan ([2]; mouse, in vivo): drastic extension of the lifespans

Question: What does the source list for `CC(=O)Nc1nnc(S(N)(=O)=O)s1` [acetazolamide]?
Answer: survival at 90 days ([2]; klotho^hm mice, acetazolamide, control group (n=10) died after 90 days): all of the animals treated with acetazolamide were still alive; lifespan ([2]; klotho^hm mice, treatment in drinking water, versus untreated): drastic extension of the lifespans; average life expectancy ([2]; klotho^hm mice, treatment in drinking water, untreated controls 66 or 78 days depending on experiment): 220 days

Question: With `Cl.N` [ammonium chloride, Ammonium chloride] as the molecule, how does the average life expectancy ([2]; mouse, in vivo) read?
Answer: 112 days

Question: And the “survival at 110 days” value ([2]; mouse, in vivo)?
Answer: all of the mice treated with NH4Cl survived this long

Question: For `N.N.O=S(=O)(O)O` [ammonium sulfate, Ammonium sulfate], which “calcification in analyzed tissues (trachea, lungs, kidneys, stomach, vessels)” value [1] is on record?
Answer: strongly reduce

Question: And the average life expectancy ([2]; mouse, in vivo)?
Answer: 129 days

Question: What about the lifespan ([2]; mouse, in vivo) of the same molecule?
Answer: drastic extension of the lifespans

From patent US20160346320A1, “SUBSTANCE FOR INHIBITING TISSUE CALCIFICATION, TISSUE FIBROSATION AND AGE-RELATED DISEASES” (Fresenius Kabi Deutschland GmbH, priority 2013, published 2016)
